Values quoted from earlier work in patent US4791112A, “N-heterocyclic-N-(4-piperidyl)amides and pharmaceutical compositions and methods employing such compounds” (The BOC Group, Inc., priority 1987, dated 1988).

Tested on: opioid receptors

SMILES: C=CCN1CC[C@]23c4c5ccc(O)c4O[C@H]2C(=O)CC[C@@]3(O)[C@H]1C5 [naloxone]
- side effects (following intravenous administration): ventricular dysrhythmia, hypertension and pulmonary oedema
- antagonism of analgesic component of opioids (in vivo): tends to also reverse or antagonize the analgesic component of opioids
